Reference: article PMC12364357, “Glutamate dehydrogenase from Pantoea ananatis: A new bacterial enzyme with dual coenzyme specificity” (PLOS One, 2025)

System: N
Experiment: purified protein
Conditions: reductive amination, 0.2 mM NADH, 5 mM α-KG, 80 mM Tris-HCl pH 8.0, 25 °C

GdhPa (Pantoea ananatis LMG 5342) showed a Km of 5.87 ± 0.20 mM, a Vmax of 5.01 µmol/min/mg and a kcat of 3.88 s⁻¹. It also gave a kcat/Km of 662 M⁻¹ s⁻¹.
